The values below come from patent US5439891A (priority 1993, dated 1995).

In the case of `O=C(/C=C/C=C/c1ccc2c(c1)OCO2)N1CCCCC1` [Piperine, (E, E) 1-[5-(1,3-benzodioxyl-5-yl)-1-oxo-2,4-pentadenyl] piperidine], the “effect on bioavailability of synthetic antidiabetic drugs such as tolbutamide” value was “no effect”.
